Values of other authors as cited in patent US20110060267A1 (priority 2008, published 2011).

Conditions: benzene; cited from earlier work

| Compound | 10th Half-life ° C. (Solvent) |
| --- | --- |
| CCC(C)(OOC(C)(C)C)OOC(C)(C)C | 100 (benzene) ° C. |
| Bis[1-(tert-butylperoxy)-1-methylethyl]benzene | 115 (benzene) ° C. |
| CC(=O)OOC(C)(C)C | 100 (benzene) ° C. |
